Results as given in PubChem BioAssay AID1456 (Vanderbilt High Throughput Screening Facility, 2008).
Only a part is listed here, and it is no random draw. Calls of active or inactive are those of the source.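 Rule for the calls: active = thallium flux slope and its plate-corrected score both differing from the plate sample mean at a set confidence after two filtering rounds, in either direction; inactive = the rest.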

Sequences of proteins named here, by UniProt entry; tags and fusion partners are left off.
UniProt Q9H2X9, whole entry: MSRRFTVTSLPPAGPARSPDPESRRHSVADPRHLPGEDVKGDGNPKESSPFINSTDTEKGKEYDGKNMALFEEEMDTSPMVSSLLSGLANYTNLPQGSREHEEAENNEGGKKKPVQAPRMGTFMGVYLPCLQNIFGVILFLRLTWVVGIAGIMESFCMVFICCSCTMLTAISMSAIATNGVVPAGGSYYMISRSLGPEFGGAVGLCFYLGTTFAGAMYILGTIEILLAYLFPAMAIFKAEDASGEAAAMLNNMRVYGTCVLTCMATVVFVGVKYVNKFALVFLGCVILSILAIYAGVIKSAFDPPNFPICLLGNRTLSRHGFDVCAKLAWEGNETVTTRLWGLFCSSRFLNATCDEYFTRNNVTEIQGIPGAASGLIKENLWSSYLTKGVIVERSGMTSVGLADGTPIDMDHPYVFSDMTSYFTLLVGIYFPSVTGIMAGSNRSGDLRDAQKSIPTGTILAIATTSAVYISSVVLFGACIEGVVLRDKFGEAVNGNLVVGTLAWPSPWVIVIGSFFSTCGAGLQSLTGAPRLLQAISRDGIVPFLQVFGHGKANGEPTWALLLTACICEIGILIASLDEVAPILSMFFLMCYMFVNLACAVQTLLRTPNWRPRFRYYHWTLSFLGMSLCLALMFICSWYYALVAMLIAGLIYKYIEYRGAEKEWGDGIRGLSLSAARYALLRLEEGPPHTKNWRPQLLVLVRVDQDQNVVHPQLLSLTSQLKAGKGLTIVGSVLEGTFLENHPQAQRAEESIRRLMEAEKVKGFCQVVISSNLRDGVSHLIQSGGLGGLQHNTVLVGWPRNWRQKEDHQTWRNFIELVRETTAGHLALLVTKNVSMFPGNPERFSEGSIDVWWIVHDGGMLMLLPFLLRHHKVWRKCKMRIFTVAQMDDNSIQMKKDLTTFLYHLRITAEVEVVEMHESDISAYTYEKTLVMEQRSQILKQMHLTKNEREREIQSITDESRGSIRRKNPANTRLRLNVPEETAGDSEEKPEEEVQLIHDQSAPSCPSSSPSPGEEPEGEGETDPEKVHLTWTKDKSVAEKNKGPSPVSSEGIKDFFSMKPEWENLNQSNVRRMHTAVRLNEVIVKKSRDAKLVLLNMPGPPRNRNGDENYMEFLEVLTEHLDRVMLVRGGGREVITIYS

Biological target: Solute carrier family 12 member 5 (Homo sapiens) (UniProt Q9H2X9)
Assay: KCC2 cotransporter modulators, thallium flux, primary screen, cell-based, HEK293 KCC2, FluoZin-2 fluorescence, MLSMR (AID 1456)
Conditions: KCC2 cells, thallium flux FluoZin-2 fluorescence; at 10 µM; stronger effect = higher value

Row | Structure (SMILES) | B-score
1 | COc1ccc(NC2CCN(C(=O)OC(C)(C)C)CC2)cc1 | inactive: 0.371
2 | CN1CCN(CCOC(=O)C(O)(c2ccccc2)c2ccccc2)CC1 | inactive: -0.0592
3 | O=C(NCC1(N2CCOCC2)CCCCC1)c1cc(=O)[nH]c2ccccc12 | inactive: 0.905
4 | O=C(NCC1(N2CCCCC2)CCCCC1)c1cccc([N+](=O)[O-])c1 | inactive: 1.56
5 | CN1CCC(Nc2cccc(F)c2)CC1 | inactive: 0.346
6 | COc1ccc(CN(CCCl)CCCl)cc1Cl | inactive: 0.59
7 | CN(C)c1cccc(C(=O)NCC2(N3CCCCC3)CCCCC2)c1 | inactive: 0.715
8 | CC(C)c1ccc(NC2CCN(C(=O)OC(C)(C)C)CC2)cc1 | inactive: -0.0885
9 | CCOC(=O)N1CCC(Nc2ccc(OC)cc2)CC1 | inactive: 0.216
10 | N#CC1(Nc2ccccc2)CCN(Cc2ccccc2)CC1 | inactive: -0.0501
11 | O=C(NCC1(N2CCOCC2)CCCCC1)c1cc2ccccc2o1 | inactive: 0.73
12 | COc1ccc(C(=O)NCC2(N3CCCCC3)CCCCC2)c(OC)c1OC | inactive: 0.334
13 | Cc1ccc(OCC(C)C)c(CN(CCCl)CCCl)c1 | inactive: 0.585
14 | CCOc1ccc(C)cc1CN(CCCl)CCCl | inactive: 0.528
15 | CN(C)c1ccc(C(=O)NCC2(N3CCCCC3)CCCCC2)cc1 | inactive: -0.736
16 | CCN1CCC(Nc2cccc(F)c2)CC1 | inactive: -0.0641
17 | CCCOc1ccc(C)cc1CN(CCCl)CCCl | inactive: -0.429
18 | CCC(CO)(C(=O)OC1CN2CCC1CC2)c1ccccc1 (stereo not given) | inactive: 1.93
19 | COc1cc(OC)cc(C(=O)NCC2(N3CCOCC3)CCCCC2)c1 | inactive: 0.0254
20 | CC(C)(C)OC(=O)N1CCC(Nc2ccccc2)CC1 | inactive: -0.552
21 | CCOc1ncccc1C(=O)NCC1(N2CCOCC2)CCCCC1 | inactive: -0.455
22 | O=C(OC1CN2CCC1CC2)C1c2ccccc2C=Cc2ccccc21 (stereo not given) | inactive: 1.1
23 | N/C(=N\O)c1c(N)no[n+]1[O-] | inactive: -0.856
24 | COc1ccc(C(=O)NCC2(N3CCOCC3)CCCCC2)cc1OC | inactive: -0.0101
25 | c1ccc(CN2CCC(Nc3ccccc3)CC2)cc1 | inactive: 0.525
